Patent US20140088192A1, “SUBCUTANEOUSLY INFUSIBLE LEVODOPA PRODRUG COMPOSITIONS AND METHODS OF INFUSION” (SynAgile Corporation, priority 2010, published 2014)

Assays:
[1] = Hydrolysis of LDEE salts to LD in aqueous solution, monitored by HPLC; format: physicochemical; conditions: about 2.5 M, acetate buffered pH 4.60, 72 hours at about 23±2° C.
[2] = Estimated / projected shelf life and operational life (time to LD saturation)

CCOC(=O)[C@@H](N)Cc1ccc(O)c(O)c1.Cl [LDEE.HCl, LDEE Hydrochloride]
% of the LDEE.HCl hydrolyzed to LD [1]: about 2.4%
projected shelf life ([2]; 2.7 M, pH 2.3, ambient temperature): about 128 days
expected time to saturation in LD ([2]; about 2.5 M, pH 2.3, storage at 4° C.): about 244 weeks
